Values quoted from earlier work in patent US12139542B2, “Inhibitors of aortic carboxypeptidase-like protein (ACLP)” (TRUSTEES OF BOSTON UNIVERSITY, priority 2014, dated 2024).

Details: PEGylated vs native alpha-interferon; cited from earlier work

**Q.** Which “antiviral activity relative to the native protein” value does the source give for Pegasys: PEGylated interferon alpha2a here?
**A.** 7%
